Assay: Through life dose consistency of salbutamol sulfate pMDI suspensions (USP <601>, apparatus A)
Type: physicochemical
[1] = nominal ex-valve 0.5 mg/act, HFA-152a
[2] = nominal ex-valve 0.5 mg/act, HFO-1234ze(E)
[3] = nominal ex-valve 1.0 mg/act, HFA-152a
[4] = nominal ex-valve 1.0 mg/act, HFO-1234ze(E)
[5] = nominal ex-valve 2.0 mg/act, HFA-152a
[6] = nominal ex-valve 2.0 mg/act, HFO-1234ze(E)

Substance: salbutamol sulfate
- through unit life ex-actuator delivered dose consistency (HFA-152a or HFO-1234ze(E)): relatively consistent
- EoL mean delivered dose [1]: 308.5 μg/act
- MoL mean delivered dose [1]: 307.7 μg/act
- SoL mean delivered dose [1]: 310.1 μg/act
- TL mean delivered dose [1]: 308.8 μg/act
- EoL mean delivered dose [2]: 288.5 μg/act
- MoL mean delivered dose [2]: 289.8 μg/act
- SoL mean delivered dose [2]: 309.9 μg/act
- TL mean delivered dose [2]: 296.1 μg/act
- EoL mean delivered dose [3]: 664.3 μg/act
- MoL mean delivered dose [3]: 634.3 μg/act
- SoL mean delivered dose [3]: 637.8 μg/act
- TL mean delivered dose [3]: 645.5 μg/act
- EoL mean delivered dose [4]: 705.1 μg/act
- MoL mean delivered dose [4]: 584.2 μg/act
- SoL mean delivered dose [4]: 477.0 μg/act
- TL mean delivered dose [4]: 588.8 μg/act
- EoL mean delivered dose [5]: 1631.7 μg/act
- MoL mean delivered dose [5]: 1097.0 μg/act
- SoL mean delivered dose [5]: 1137.8 μg/act
- TL mean delivered dose [5]: 1190.9 μg/act
- EoL mean delivered dose [6]: 1398.8 μg/act
- MoL mean delivered dose [6]: 1232.6 μg/act
- SoL mean delivered dose [6]: 1097.1 μg/act
- TL mean delivered dose [6]: 1223.3 μg/act

Source: patent US20260249027A1, “METERED DOSE INHALERS AND HIGH-DOSE SUSPENSIONS” (Kindeva Drug Delivery L.P., priority 2023, published 2026)
